From paper PMC6482957 (Nature structural & molecular biology, 2018)

Test system: BD-RING-PHD (BRP) region of p300
Experiment: 1H,15N HSQC NMR titration, p300 BD-RING-PHD
Format: binding, human
Conditions: 15N-labeled BD-RING-PHD, 298K, pH 7.0

H3_1–19: unmodified H3_1–19, which is the ligand of ZZ
Interaction with BD-RING-PHD: does not recognize
